Measurements taken from US20230295226A1.

Key:
[1] = target: delta opioid receptor (DOR); assay: protein binding radioassay
mu opioid receptor (MOR) = assay: protein binding radioassay

D-Ala-D-Leu enkephalin (DADLE) (peptide)
Kd [1]: 8 nM | Kd (mu opioid receptor (MOR)): 9 nM
